Values of other authors, collected in patent publication EP0993306B1, “PERFLUOROALKYLATED OLIGOMER COMPOUNDS, PROCESS FOR PREPARING THE SAME AND THEIR USE IN NMR DIAGNOSIS” (SCHERING AKTIENGESELLSCHAFT, priority 1997, dated 1999).

Details: in vivo, iv; cited from earlier work

Q: What does the source list for Albumin-Gd-DTPA?
A: Anreicherung im Lebergewebe: ~30 % der Dosis; Elimination in 24 Stunden: 20 % der Dosis
